According to EP0444945A2, “Use of spirocyclic compounds as oxytocin antagonists” (MERCK & CO. INC., priority 1990, dated 1991):

Target: T1, uterine OT receptors (Rattus norvegicus, UniProt P70536)
T1 construct: from tissue; host or cells: uterus of DES-treated rats, crude membrane preparation
T1 sequence (P70536 1-388): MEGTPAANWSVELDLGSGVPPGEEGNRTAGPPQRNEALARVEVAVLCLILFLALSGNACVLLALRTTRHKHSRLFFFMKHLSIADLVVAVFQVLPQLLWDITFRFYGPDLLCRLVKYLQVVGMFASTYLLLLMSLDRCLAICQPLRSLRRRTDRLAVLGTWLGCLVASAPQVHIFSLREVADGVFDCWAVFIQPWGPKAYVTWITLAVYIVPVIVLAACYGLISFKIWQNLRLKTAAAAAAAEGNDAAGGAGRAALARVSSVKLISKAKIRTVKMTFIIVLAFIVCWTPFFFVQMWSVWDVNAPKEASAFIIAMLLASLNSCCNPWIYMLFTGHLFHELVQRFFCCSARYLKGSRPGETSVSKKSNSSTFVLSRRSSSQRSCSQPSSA
Assay: [³H]OT radioligand binding assay, crude uterine membrane preparation
Details: 1 nM [³H]OT, uteri of DES-treated rats, 60 min, 22°C; read-out: Inhibition Oxytocin IC50
Procedure: Competition studies were conducted at equilibrium (60 min; 22°C) using 1 nM [³H]OT in the following assay buffer: 50 mM Tris-HCl, 5 mM MgCl₂, and 0.1% BSA, pH 7.4.

Work on `Cc1ccc(S(=O)(=O)N2CCC3(C=Cc4ccccc43)CC2)cc1` [Example 2] yielded an IC50 of 4.7 µM.
